# Test results reported in patent US4801614A, “Process for using endogenous enkephalins and endorphins to inhibit growth of tumerous cells” (TNI Pharmaceuticals, Inc., priority 1987, dated 1989).
# Conditions: for Blood Pressure: infusion from 9:00
# [1] = Volunteer No. 1, 10 micrograms/kg
# [2] = Volunteer No. 2, 10 micrograms/kg
structure (smiles),measurement,setting,value
"CSCC[C@H](NC(=O)[C@H](Cc1ccccc1)NC(=O)CNC(=O)CNC(=O)[C@@H](N)Cc1ccc(O)cc1)C(=O)O [Methionine-Enkephalin, Tyr--Gly--Gly--Phe--Met]",Blood Pressure,"Volunteer No. 1, 0.010 mg/kg, readings 1 p.m. to second day 8:55, time in the cited line",100/70
same,Blood Pressure,"Volunteer No. 1, 0.010 mg/kg, readings 9:10 to second day 8:55, time in the cited line, 0.01 mg/kg",100/70 and 110/70
same,Neurological evaluations,[1],slight nystagmus 1 to 2 hours after infusion
same,"blood pressure, temperature or EKG",[1],No significant changes
same,heart rate and respiration,[1],Slight increase
same,Blood Pressure,"Volunteer No. 2, 0.010 mg/kg, readings 9:10 to next day 8:44, time in the cited line",130/80
same,Blood Pressure,"Volunteer No. 2, 0.010 mg/kg, readings 11:00 to next day 8:44, time in the cited line, 0.01 mg/kg",130/80 and 140/80
same,Neurological evaluation,[2],slight nystagmus 2 hours after infusion
same,"blood pressure, body temperature, or EKG",[2],No changes
same,Heart Rate,"Volunteer No. 2, 10 micrograms/kg, afternoon following the infusion",Slight decreases
same,Blood Pressure,"Volunteer No. 3, 0.001 mg/kg, readings 9:10 to next day 8:55, time in the cited line",110/80
same,Blood Pressure,"Volunteer No. 3, 0.001 mg/kg, readings 11:00 to next day 8:55, time in the cited line, 0.001 mg/kg",120/80 and 110/80
same,heart rate and respiratory rate,"Volunteer No. 3, 0.001 mg/kg, at the end of the infusion",Slight decreases
same,neurological finding,"Volunteer No. 3, 0.001 mg/kg, following the infusion",Slight nystagmus
same,Blood Pressure,"Volunteer No. 4, one microgram per kg, readings 11:00 to next day 8:55, time in or above the cited line",100/80 and 110/70 and 120/80

# Several values for one entry are separate records, joined by “and”; a condition that tells them apart may be missing. Identical values can stand only once. Like-named read-outs stand apart in the source and are kept apart here.
